Test system: scopolamine-treated mice
Assay: Object recognition test, 3 h inter-trial interval, scopolamine-induced episodic memory deficit
Settings: scopolamine 1 mg/kg s.c. 30 minutes before acquisition, object explored 3 h before

## CN1[C@@H]2C[C@@H](OC(=O)[C@H](CO)c3ccccc3)C[C@H]1[C@@H]1O[C@@H]12 [scopolamine]
  effect on episodic memory: completely abolished episodic memory

Source: patent US8518939B2, “6-pyrimidinyl-pyrimid-4-one derivative” (Mitsubishi Tanabe Pharma Corporation, priority 2007, dated 2013)
